# pKi: −log10 of the molar value.
# By UniProt entry, the sequences of proteins in these tests, tags left out. Where a name states a change or a piece, a line headed by the entry shows the natural chain unless it says otherwise.
# UniProt P41145: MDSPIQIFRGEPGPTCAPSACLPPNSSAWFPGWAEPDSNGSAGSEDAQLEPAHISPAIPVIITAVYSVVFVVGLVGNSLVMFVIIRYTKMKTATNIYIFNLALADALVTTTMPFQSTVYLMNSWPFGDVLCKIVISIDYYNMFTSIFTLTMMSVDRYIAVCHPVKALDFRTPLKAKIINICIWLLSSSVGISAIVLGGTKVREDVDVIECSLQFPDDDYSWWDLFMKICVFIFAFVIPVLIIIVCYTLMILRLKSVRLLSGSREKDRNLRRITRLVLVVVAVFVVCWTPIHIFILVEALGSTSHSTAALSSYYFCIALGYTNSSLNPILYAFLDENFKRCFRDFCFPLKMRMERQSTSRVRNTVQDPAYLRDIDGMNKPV
# Biological target: Kappa-type opioid receptor (Homo sapiens, UniProt P41145)
# Experiment: Binding affinity to human kappa opioid receptor
compound,measurement,value
C=CCN1CC[C@]23c4c5ccc(O)c4O[C@H]2[C@@H](O)C=C[C@H]3[C@H]1C5,pKi,8.70

# Reference: ChEMBL document CHEMBL3774335, “Tactical Approaches to Interconverting GPCR Agonists and Antagonists” (J Med Chem, 2016)
